Laboratory results reported in paper PMC10503797, “Allosteric modulator potentiates β2AR agonist–promoted bronchoprotection in asthma models” (The Journal of Clinical Investigation, 2023).
“And” between values parts separate entries of the source, which are not always exact repeats. Identical values can stand only once.

Key:
human lung slices = assay: Methacholine-induced airway constriction in human lung slices; assay type: cell-based; details: for MCh-induced airway constriction response (Figure 7): donor 1-4
[1] = system: lung slices obtained from ovalbumin-sensitized guinea pigs; assay: Ovalbumin-induced airway constriction in lung slices from ovalbumin-sensitized guinea pigs; assay type: cell-based, guinea pig; details: Exp1-5
guinea pig lung slices = assay: Methacholine-induced airway constriction in guinea pig lung slices; assay type: cell-based; details: for MCh-induced airway constriction response (Figure 5D): Exp1-6
[2] = 10 µM Fenoterol, -Log [MCh] 7.5

CC(Cc1ccc(O)cc1)NCC(O)c1cc(O)cc(O)c1 (stereo not drawn) [Fenoterol, fenoterol]
MCh-induced airway constriction response (Figure 7) (human lung slices; 1 µM Fenoterol, -Log [MCh] 8.5): 101.6
MCh-induced airway constriction response (Figure 7) (human lung slices; [2]): 101.6
EC50 (human lung slices; Homo sapiens, read-out: MCh pD2, 1 μM Fenoterol (converted)): 102 nM
OVA-induced airway constriction response (Figure 6) ([1]; 0.1 µM Fenoterol, [OVA] 0.001 ng/ml): 104.3
OVA-induced airway constriction response (Figure 6) ([1]; 0.1 µM Fenoterol, [OVA] 0.1 ng/ml): 107.0 and 102.5
OVA-induced airway constriction response (Figure 6) ([1]; 0.1 µM Fenoterol, [OVA] 10 ng/ml): 101.7
OVA-induced airway constriction response (Figure 6) ([1]; 1 µM Fenoterol, [OVA] 0.001 ng/ml): 102.1
OVA-induced airway constriction response (Figure 6) ([1]; 1 µM Fenoterol, [OVA] 0.01 ng/ml): 101.8
OVA-induced airway constriction response (Figure 6) ([1]; 1 µM Fenoterol, [OVA] 0.1 ng/ml): 103.7
OVA-induced airway constriction response (Figure 6) ([1]; 1 µM Fenoterol, [OVA] 1000 ng/ml): 108.3
OVA-induced airway constriction response (Figure 6) ([1]; 1 µM Fenoterol, [OVA] 1000000 ng/ml): 104.4
airway area in MCh concentration-response (Figure 5A/5C) (guinea pig lung slices; 1 µM Fenoterol, -Log [MCh] 7): 102.1
airway area in MCh concentration-response (Figure 5A/5C) (guinea pig lung slices; 1 µM Fenoterol, -Log [MCh] 7.5): 108.4 and 102.4
airway area in MCh concentration-response (Figure 5A/5C) (guinea pig lung slices; 1 µM Fenoterol, -Log [MCh] 8): 101.6 and 107.2
airway area in MCh concentration-response (Figure 5A/5C) (guinea pig lung slices; 10 µM Fenoterol, -Log [MCh] 7): 102.0
MCh-induced airway constriction response (Figure 5D) (guinea pig lung slices; 10 µM Fenoterol, -Log [MCh] 7): 102.0
airway area in MCh concentration-response (Figure 5A/5C) (guinea pig lung slices; [2]): 104.2 and 107.5
MCh-induced airway constriction response (Figure 5D) (guinea pig lung slices; [2]): 104.2 and 107.5
airway area in MCh concentration-response (Figure 5A/5C) (guinea pig lung slices; 10 µM Fenoterol, -Log [MCh] 8): 104.3 and 106.6 and 104.5
MCh-induced airway constriction response (Figure 5D) (guinea pig lung slices; 10 µM Fenoterol, -Log [MCh] 8): 104.3 and 106.6 and 104.5
MCh-induced airway constriction response (Figure 5D) (guinea pig lung slices; 100 µM Fenoterol, -Log [MCh] 6.5): 102.2
MCh-induced airway constriction response (Figure 5D) (guinea pig lung slices; 100 µM Fenoterol, -Log [MCh] 7): 106.9
MCh-induced airway constriction response (Figure 5D) (guinea pig lung slices; 100 µM Fenoterol, -Log [MCh] 7.5): 101.5 and 103.6
MCh-induced airway constriction response (Figure 5D) (guinea pig lung slices; 100 µM Fenoterol, -Log [MCh] 8): 108.1 and 107.5
